Assay [1] concerns Jurkat cells. Description: 6TG selection of shHPRT-N6 CAR expressing Jurkat cells. In kind it is cell-based. Conditions: 1 uM 6TG for 5 days, flow cytometry. The protocol: FIGS. 2A-2D. 6TG selection of HPRT repressed CAR T-cells. FIG. 2A. Quantitative PCR analysis of HPRT expression following transfection of shHPRT plasmid. Untransfected Jurkat cells were used as a control. FIG. 2B. N6 CAR (control) or shHPRT-N6 CAR were transduced into Jurkat cells and co-cultured with either gp120 expressing HEK293 cells or HEK293 parental cells for 24 hours. Following incubation, the Jurkat cells were analyzed for CD69 expression by flow cytometry. FIG. 2C. N6 CAR or shHPRT-N6 CAR expressing Jurkat cells were incubated in either 0, 1, or 3 uM of 6TG for four days and analyzed for cell counts and viability through a trypan blue assay. FIG. 2D. shHPRT-N6 CAR expressing Jurkat cells cultured in 0 or 1 uM 6TG for 5 days were analyzed for CAR expression through flow cytometry.
A general note: In flow cytometry, cells or beads pass a laser one at a time.

The subject of assay [2] is T-cells. Description: Growth and phenotype of enrichment anti-HIV CAR T-cells after 6TG selection. In kind it is cell-based. An excerpt: However, the growth of the 6TG-treated anti-HIV CAR T-cells growth was equivalent to anti-HIV CAR-T-cells that were not subjected to 6TG treatment (FIG. 14B).
Phenotypically, Applicant observed that the CD4 ratio dropped ˜10% following 6TG treatment (FIG. 14C), which could have potential consequences for CAR functionality^153.

Molecules are shown by their SMILES.

In the case of `Nc1nc2nc[nH]c2c(=S)[nH]1` [6TG, 6-thioguanine], in assay [1], the “anti-HIV CAR expressing cells in selected population” value is recorded as > 90%. In assay [2] (following 6TG selection), the “CD45RO and CD45RA ratios” value is listed as “no observable difference”; the CD62L ratios result is “noticeable decrease”. Also, in assay [2] (following 6TG treatment), the “drop of CD4 ratio” value was ~10%.

The record behind these values is patent US20250154457A1, “T-CELLS FOR ANTI-HIV CAR-T THERAPY AND METHODS OF USE” (City of Hope, priority 2021, published 2025).
